Experimental data published in ChEMBL document CHEMBL3886986, “Thrombin inhibitors” (2016).
pKi: −log10 of the molar value.

Test: In Vitro Assay: Relevant in vitro assays are referenced in Morrissette, et al., Bioorg. […] The assays were carried out at 25° C. in 0.05 M TRIS buffer pH 7.4, 0.15 M NaCl, 0.1% PEG. Trypsin assays also contained 1 mM CaC12.

pKi: 7.00
SMILES: NCc1ccc(Cl)cc1CNC(=O)[C@@H]1CCCN1C(=O)[C@@]1(N)CCc2cccnc21
